Test results as given in paper PMC5399052, “Integrating in vitro data and physiologically based kinetic (PBK) modelling to assess the in vivo potential developmental toxicity of a series of phenols” (Archives of Toxicology, 2016).

Key:
rat = test: In vitro PBK-based reverse dosimetry (predicted developmental toxicity)

CCCCCCCOc1ccc(O)cc1 [p-Heptyloxyphenol, p-heptyloxyphenol]
Potency ratio (phenol / p-substituted phenol), in vitro PBK approach (rat; BMDL05 based on Cmax): 0.8 fold
Difference between in vitro-derived and in vivo-derived relative potency after PBK-based reverse dosimetry (rat; EST data with reverse dosimetry): < 2.1 fold
Fold difference predicted BMDL05 (AUC0-10d) versus in vivo BMDL05 (rat; rat GD11): 1.7 fold
Fold difference predicted BMDL05 (Cmax) versus in vivo BMDL05 (rat; rat GD11): 4.2 fold
Catalytic efficiency (Vmax/Km) (rat liver microsomes): 28.0 ml/min/mg protein
Scaled catalytic efficiency (rat liver microsomes): 63.8 l/h/g liver
P app BeWo fold lower than P app Caco-2 (BeWo cells): 6.8 fold
